The text below walks through data of US20250195475A1, “CDK2 INHIBITOR AND PREPARATION METHOD AND USE THEREOF” (INVENTISBIO CO., LTD., priority 2022, published 2025).

Sequences of proteins named here, by UniProt entry; tags and fusion partners are left off.
UniProt P06493, whole entry: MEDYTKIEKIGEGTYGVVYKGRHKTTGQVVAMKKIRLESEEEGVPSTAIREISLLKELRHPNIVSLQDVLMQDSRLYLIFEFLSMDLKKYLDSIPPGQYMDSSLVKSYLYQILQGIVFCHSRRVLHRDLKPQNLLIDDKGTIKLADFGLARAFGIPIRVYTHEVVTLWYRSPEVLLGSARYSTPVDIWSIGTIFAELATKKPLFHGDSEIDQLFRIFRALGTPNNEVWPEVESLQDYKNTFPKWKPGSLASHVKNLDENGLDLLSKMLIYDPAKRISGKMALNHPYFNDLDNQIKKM
UniProt P50750, whole entry: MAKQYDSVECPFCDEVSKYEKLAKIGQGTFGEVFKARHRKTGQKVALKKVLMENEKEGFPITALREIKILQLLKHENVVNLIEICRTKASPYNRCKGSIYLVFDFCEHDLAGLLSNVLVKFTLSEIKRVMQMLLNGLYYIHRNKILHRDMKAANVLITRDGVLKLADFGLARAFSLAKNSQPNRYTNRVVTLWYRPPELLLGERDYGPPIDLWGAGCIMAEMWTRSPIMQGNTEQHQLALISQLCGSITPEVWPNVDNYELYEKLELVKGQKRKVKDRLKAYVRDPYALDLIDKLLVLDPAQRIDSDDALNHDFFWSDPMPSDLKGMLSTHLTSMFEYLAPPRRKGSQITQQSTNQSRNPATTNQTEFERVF
UniProt O60563, whole entry partner: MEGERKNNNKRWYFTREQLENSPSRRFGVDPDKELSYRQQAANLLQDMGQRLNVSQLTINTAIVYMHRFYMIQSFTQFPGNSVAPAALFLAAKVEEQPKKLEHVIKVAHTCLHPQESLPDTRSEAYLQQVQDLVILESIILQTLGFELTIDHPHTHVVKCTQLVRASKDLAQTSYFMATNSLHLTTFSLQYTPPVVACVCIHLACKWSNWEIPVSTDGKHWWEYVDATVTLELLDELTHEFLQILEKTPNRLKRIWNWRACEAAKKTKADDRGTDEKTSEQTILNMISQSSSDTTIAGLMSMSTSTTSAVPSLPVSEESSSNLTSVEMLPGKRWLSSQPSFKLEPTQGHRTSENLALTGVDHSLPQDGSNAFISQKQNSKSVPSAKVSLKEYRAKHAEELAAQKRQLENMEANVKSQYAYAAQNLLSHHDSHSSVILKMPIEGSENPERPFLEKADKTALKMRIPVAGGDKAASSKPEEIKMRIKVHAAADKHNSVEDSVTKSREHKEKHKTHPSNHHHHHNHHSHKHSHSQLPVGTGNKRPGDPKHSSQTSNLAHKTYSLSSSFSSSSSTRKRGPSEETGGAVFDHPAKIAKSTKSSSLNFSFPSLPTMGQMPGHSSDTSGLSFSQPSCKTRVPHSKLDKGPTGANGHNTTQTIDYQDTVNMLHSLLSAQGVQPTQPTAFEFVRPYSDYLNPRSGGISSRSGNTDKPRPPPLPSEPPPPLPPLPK
UniProt P14635, whole entry partner: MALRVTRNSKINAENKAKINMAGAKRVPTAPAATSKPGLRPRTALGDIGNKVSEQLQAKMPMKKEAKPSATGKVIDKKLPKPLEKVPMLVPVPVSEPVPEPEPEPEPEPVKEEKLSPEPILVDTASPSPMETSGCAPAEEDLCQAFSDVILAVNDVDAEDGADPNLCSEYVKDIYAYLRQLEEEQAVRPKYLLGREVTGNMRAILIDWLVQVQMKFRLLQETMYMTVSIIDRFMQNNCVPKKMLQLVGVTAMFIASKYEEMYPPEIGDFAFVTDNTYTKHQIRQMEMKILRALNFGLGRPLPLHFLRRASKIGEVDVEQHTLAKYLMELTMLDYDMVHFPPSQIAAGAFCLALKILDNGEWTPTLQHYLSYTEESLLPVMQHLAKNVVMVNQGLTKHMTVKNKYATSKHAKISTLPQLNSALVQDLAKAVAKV

One assay concerns the target CDK2/CyclinE1 (Homo sapiens (Human), UniProt P24941). The experiment in a line: CDK2 kinase assay (TR-FRET). On the technique in general: In TR-FRET formats the signal depends on donor and acceptor labels being close together.
In a further assay the target is CDK1/CyclinB1 (Homo sapiens (Human), UniProt P06493). The experiment in a line: CDK1 kinase assay (TR-FRET). Conditions: read-out: CDK1 IC50, CDK1/CyclinB 7.5 nM, ATP 17 μM. The protocol:
(§1) The purpose of these assays is to evaluate the inhibition of small molecule inhibitors by using TR-FRET assay.
(§2) Compound Preparation. Dissslove the compounds into DMSO solution to make 10 mM DMSO stock. Serially dilute the stock solution from highest concentration down to lowest in DMSO to make the compound stock plate (100× stock plates). To make 5× compound intermediate plate, add 38 μL of assay buffer (50 mM HEPES, pH 7.5, 0.05 mg/mL BSA, 10 mM MgCl2, 1 mM EGTA, 0.01% Tween-20, 2 mM DTT) into each well of the V-bottom plate; then transfer 2 μL of the stock compound solution of each concentration from the compound stock plate (100× stock), and mix well.
(§3) Enzyme reaction. Transfer 2 μL compound from 5× intermediate plate into assay plate, then add 4 μL/well 2.5× Enzyme mix to assay plate, incubation for 10 min at room temperature. For positive control wells, add 4 μL/well assay buffer instead of Enzyme mix. Then add 4 μL/well 2.5× Substrate mix to assay plate, and incubation at 25° C. for 30 min at room temperature. […]
(§4) Inhibition rate (IR) of the tested compounds was determined by the following formula: IR (%)=(average High control−compound well)/(average High control−average Low control)*100%. […]

In the next assay the target is CDK9/CyclinT1 (Homo sapiens (Human), UniProt P50750). The experiment in a line: CDK9 kinase assay (TR-FRET). To be noted: read-out: CDK9 IC50, CDK9/CyclinT1 1.0 nM, ATP 3.5 μM. The protocol:
as §1, §2, §3, §4

Where [1] appears, read: read-out: CDK2 IC50, CDK2/CyclinE1 0.5 nM, ATP 50 μM.

Read-outs that look alike come from different tables or passages of the source.

`COC[C@H]1C[C@@H]1C(=O)Nc1cc(C2CC(OC(=O)NC(C)C)CO2)[nH]n1` (single isomer, unassigned) [55]: on CDK2/CyclinE1 (setting [1]), the IC50 is 0.0187 µM.

As for `CC(=O)[C@H]1C[C@@H]1C(=O)Nc1cc([C@H]2CC[C@@H](OC(=O)NC3(C)CCC3)C2)[nH]n1`, on CDK2/CyclinE1 (setting [1]), the IC50 amounted to 0.0012 µM.

On to `C#C[C@H]1C[C@@H]1C(=O)Nc1cc([C@H]2CC[C@@H](OC(=O)NC3(C)CCC3)C2)[nH]n1`, for which the IC50 at CDK2/CyclinE1 (setting [1]) worked out at 0.0004 µM.

Turning to `COCc1cc(C(=O)Nc2cc([C@H]3CC[C@@H](N4CC(C)(C)NC4=O)C3)[nH]n2)n(C)n1` (relative stereo) [Compound 88], on CDK2/CyclinE1 (setting [1]), the IC50 was 0.024 µM.

Take `CC(C)NC(=O)O[C@@H]1CC[C@H](c2cc(NC(=O)C3CC34CCOC4)n[nH]2)C1` (some centres unmarked): at CDK2/CyclinE1 (setting [1]), the IC50 stood at 0.0209 µM.

`CC(C)NC(=O)O[C@@H]1CC[C@H](c2cc(NC(=O)C34CC(C(N)=O)(C3)C4)n[nH]2)C1`: the IC50 on CDK2/CyclinE1 (setting [1]) came out at 0.0032 µM; on CDK2/CyclinE1 (read-out: CDK2 IC50, CDK2/CyclinE1 0.5 nM, ATP 50 μM, listed as 21), 0.0818 µM.

Consider `CC(C)NC(=O)O[C@@H]1CC[C@H](c2cc(NC(=O)[C@H]3C[C@@H]3CN3CCOCC3)n[nH]2)C1`, for which the IC50 at CDK2/CyclinE1 (read-out: CDK2 IC50, CDK2/CyclinE1 0.5 nM, ATP 50 μM, tested form: formate) is 0.0065 µM.

In the case of `CC(C)NC(=O)O[C@@H]1CO[C@H](c2cc(NC(=O)Cc3cc(F)cc(F)c3)n[nH]2)C1` (relative stereo), the IC50 at CDK2/CyclinE1 (setting [1]) is 0.0008 µM.

For the molecule `COCc1cc(C(=O)Nc2cc([C@H]3CC[C@@H](OC(=O)NC4COC5(CCC5)C4)C3)[nH]n2)n(C)n1` (single isomer, unassigned), the figures for the IC50 at CDK1/CyclinB1 and at CDK9/CyclinT1 were 142 nM and 963 nM, respectively.

As for `CC(C)NC(=O)O[C@@H]1CC[C@H](c2cc(NC(=O)[C@@H]3CCN(S(=O)(=O)C(F)F)C3)n[nH]2)C1`, the IC50 on CDK2/CyclinE1 (setting [1]) came out at 0.0027 µM.

In the case of `COCc1cc(C(=O)Nc2cc([C@H]3CC[C@@H](N4CC(C)(C)NC4=O)C3)[nH]n2)n(C)n1` (relative stereo) [89], the IC50 on CDK2/CyclinE1 (setting [1]) was found to be 0.0253 µM.

For the molecule `COC[C@H]1C[C@@H]1C(=O)Nc1cc(C2CC(OC(=O)NC(C)C)CO2)[nH]n1` (single isomer, unassigned) [54], the IC50 on CDK2/CyclinE1 (setting [1]) came out at 0.0045 µM.
